target: T1, human 11β-HSD1 (Homo sapiens, UniProt P28845); assay: Scintillation Proximity Assay: inhibition of purified 11β-HSD1 (Biological Test Example 1); settings: read-out: Biological Test Example 1 (IC50 class); purified recombinant 11β-HSD1, SPA

Amino acid sequences for entries named in this document (tags omitted).
UniProt P28845, whole entry: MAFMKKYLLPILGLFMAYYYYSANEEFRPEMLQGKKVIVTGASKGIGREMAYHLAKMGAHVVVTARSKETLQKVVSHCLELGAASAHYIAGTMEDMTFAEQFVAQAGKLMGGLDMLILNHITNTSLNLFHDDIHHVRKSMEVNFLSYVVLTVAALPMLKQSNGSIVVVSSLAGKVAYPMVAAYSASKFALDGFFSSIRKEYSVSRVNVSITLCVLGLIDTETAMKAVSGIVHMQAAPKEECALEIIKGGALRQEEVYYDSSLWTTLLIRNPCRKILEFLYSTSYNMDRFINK

IC50, < 50 nM:
COC(=O)CC1CC2(CCN(C(=O)NC3C4CC5CC(C4)CC3C5)CC2)c2ccccc21 (single isomer, unassigned)

target: T1, human 11β-HSD1; assay: Inhibition of a microsomal preparation of 11β-HSD1, SPA (Biological Test Example 2); assay type: biochemical; settings: read-out: Biological Test Example 2 (IC50 class)

IC50, < 50 nM:
CNCCN(C)C(=O)CC1CC2(CCN(C(=O)NC3C4CC5CC(C4)CC3C5)CC2)c2c(Br)cccc21 (single isomer, unassigned)
O=C(O)CC1CC2(CCN(C(=O)NC3C4CC5CC3CC(F)(C5)C4)CC2)c2c(Br)cccc21 (single isomer, unassigned)
O=C(O)CC1CC2(CCN(C(=O)OC3C4CC5CC(C4)CC3C5)CC2)c2c(Br)cccc21 (single isomer, unassigned)
CCOC(=O)C=C1CC2(CCN(C(=O)NC3C4CC5CC(C4)CC3C5)CC2)c2c(Br)cccc21 (single isomer, unassigned)
O=C(O)CC1CC2(CCN(C(=O)NC3C4CC5CC(C4)CC3C5)CC2)c2c(Br)cccc21 (single isomer, unassigned)
